In patent US20250099511A1 (published 2025):
In brackets after ≈: the same amount, converted by molar mass.

Test system: Bacteroides thetiotaomicron ATCC 29741
Assay: MIC by broth microdilution (CLSI), QC strain
Settings: ATCC29741

`CCC[C@@H]1C[C@@H](C(=O)N[C@@H]([C@H]2O[C@H](SC)[C@H](O)[C@@H](O)[C@H]2O)[C@H](C)Cl)N(C)C1` [CLI, clindamycin] gave an MIC of 4 µg/mL (≈ 9.41 µM).
